Measured values: US11666580B2, “Mechanism of resistance to bet bromodomain inhibitors” (Dana-Farber Cancer Institute, Inc., priority 2015, dated 2023)

Test system: SUM149, SUM149R, SUM159, and SUM159R cells
Assay: Synergy studies (ATPlite, combination indices, isobolograms)
Format: cell-based, human
Settings: summary statement; resistant cells
Protocol: SUM149, SUM149R, SUM159, and SUM159R cells were seeded in sterile, white, opaque 384-well microtiter plates (Thermo), using an automated dispensing system (BioTek EL406), at 1,000 cells per well in 50 μl of media. Drugs were delivered in DMSO by robotic pin transfer with a JANUS workstation (100 nl) to achieve a matrix of pairwise dose-response incubations of each compound, each pair having eight replicates. Following 72 hours of incubation, ATP levels were determined for treated cells and vehicle controls (ATPlite, PerkinElmer). Data were normalized to vehicle controls. Combination indices were determined using the median-effect principle of Chou and Talalay^49 (CalcuSyn Software). Isobologram plots were generated with GraphPad Prism software. Points represent paired values of drug concentrations assessed for synergism. The diagonal line signifies drug additivity. Points above the line represent antagonistic drug combinations, and those below the line represent synergistic drug combinations. Synergy assays were performed in triplicates and repeated 2-3 times.

N#CC[C@H](C1CCCC1)n1cc(-c2ncnc3[nH]ccc23)cn1 [INC424]
Synergy with JQ1: substantial synergy
